Measurements reported in US20060115827A1, “Genetic markers for predicting disease and treatment outcome” (UNIVERSITY OF SOUTHERN CALIFORNIA, priority 2004, published 2006).

Tested on: patients with metastatic CRC
Details: human, in vivo

## cetuximab: Epidermal Growth Factor Receptor (EGFR) inhibitor; anti-EGFR antibody
  Skin reactions observed: 85%
  Toxicity (rash) Grade 2: 51%
  Toxicity (rash) Grade 3: 3%
